From paper PMC3485190, “Crystal Structures of Lysine-Preferred Racemases, the Non-Antibiotic Selectable Markers for Transgenic Plants” (PLoS ONE, 2012)

Experiments:
N=C(N)NCCC[C@H](N)C(=O)O = test: purified protein; conditions: 100 mM CHES-NaOH pH 9.0, 30 µM PLP, 50°C
NCCCC[C@H](N)C(=O)O = test: purified protein; conditions: 100 mM CHES-NaOH pH 9.0, 30 µM PLP, 50°C

Substance | Km (N=C(N)NCCC[C@H](N)C(=O)O) [mM] | kcat/Km (N=C(N)NCCC[C@H](N)C(=O)O) [M⁻¹ s⁻¹] | Km (NCCCC[C@H](N)C(=O)O) [mM] | kcat (NCCCC[C@H](N)C(=O)O) [s⁻¹] | kcat (N=C(N)NCCC[C@H](N)C(=O)O) [s⁻¹] | kcat/Km (NCCCC[C@H](N)C(=O)O) [M⁻¹ s⁻¹]
Lyr (lysine racemase) (Proteus mirabilis; S394Y/T391Y) | 75.5 ± 6.2 | 5 | 34.3 ± 4.1 | 2.57 |  | 
Lyr (lysine racemase) (Proteus mirabilis; T391Y) | 47.7 ± 1.7 | 213 | 37.6 ± 5.3 | 23.1 | 10.2 | 613
